{"source": "patent US12099068B2", "about": "“Biomarkers for graft-versus-host disease” (Incyte Corporation, priority 2018, dated 2024)", "system": "plasma proteins", "assay": "OLINK plasma protein change between baseline (day 1) and day 28 in complete responders, Example 2", "format": "in vivo, human", "conditions": "+ corticosteroids", "description": "Plasma samples were collected from individuals enrolled in the clinical study of Example 1 at baseline and at day 28.\nTable 5 identifies proteins that changed in complete responders between day 1 (baseline) to day 28. Fold change in this example represents the change of a protein level between day 1 (baseline) versus day 28. A paired t test was used to compare the relative change between level of a protein between day 1 and day 28. Table 5 identifies biomarkers of therapeutic response.\nTherefore, these proteins are designated as baseline predictive biomarkers."}
{"smiles": "N#CCC1(n2cc(-c3ncnc4[nH]ccc34)cn2)CN(C2CCN(C(=O)c3ccnc(C(F)(F)F)c3F)CC2)C1", "note": "[itacitinib, {1-{1-[3-Fluoro-2-(trifluoromethyl)isonicotinoyl]piperidin-4-yl}-3-[4-(7H-pyrrolo[2,3-d]pyrimidin-4-yl)-1H-pyrazol-1-yl]azetidin-3-yl}acetonitrile]", "values": [{"measurement": "Fold Change HSD11B1 between Day 1 and Day 28", "setting": "not significant", "result": 1.0468}, {"measurement": "Fold Change TIMP4 between Day 1 and Day 28", "setting": "not significant", "result": "−1.1371"}, {"measurement": "Fold Change DSC2 from Baseline to Day 28", "setting": "significantly modulated", "result": "−1.4423"}]}
